# Molecular target: Delta-type opioid receptor (Homo sapiens, UniProt P41143)
# Sequences of proteins named here, by UniProt entry; tags and fusion partners are left off.
# UniProt P41143, whole entry, looked up: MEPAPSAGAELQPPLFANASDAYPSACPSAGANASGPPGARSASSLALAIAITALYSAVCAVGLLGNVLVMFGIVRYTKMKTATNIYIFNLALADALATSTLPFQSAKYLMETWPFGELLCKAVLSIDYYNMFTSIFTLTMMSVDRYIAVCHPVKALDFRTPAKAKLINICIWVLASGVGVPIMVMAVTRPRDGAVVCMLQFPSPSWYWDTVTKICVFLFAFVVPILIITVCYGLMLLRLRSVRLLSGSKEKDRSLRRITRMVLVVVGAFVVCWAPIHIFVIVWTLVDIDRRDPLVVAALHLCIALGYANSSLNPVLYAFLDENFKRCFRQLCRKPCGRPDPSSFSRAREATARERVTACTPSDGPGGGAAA
# Assay: ChEBML_146441
row,SMILES,Ki [nM]
1,C[C@@H]1CN(C(=O)Cc2ccc(Cl)c(Cl)c2)C(CN2CCCC2)c2ccccc21 (stereo not given in full),158
2,CC1(C)CN(C(=O)Cc2ccc(Cl)c(Cl)c2)C(CN2CCCC2)c2ccccc21 (stereo not given),1010
3,C[C@@H]1Cc2ccccc2C(CN2CCCC2)N1C(=O)Cc1ccc(Cl)c(Cl)c1 (stereo not given in full),44
4,CN(C(=O)Cc1ccc(Cl)c(Cl)c1)[C@@H]1CCCC[C@H]1N1CCCC1,> 10000
5,O=C(Cc1ccc(Cl)c(Cl)c1)N1CCc2c(O)cccc2C1CN1CCCC1 (stereo not given),7.1
